Tests used:
[1] = molecular target: T1, rat Y1 receptor (Rattus norvegicus, UniProt P21555); assay: Block of NPY-induced activation of rat Y1 receptors; assay type: cell-based
[2] = molecular target: T1, rat Y1 receptor; assay: ^125I-PYY binding to cloned rat Y1 receptor (COS-7 membranes); conditions: read-out: Ki rat Y1 receptor; cloned rat Y-type receptors; expression system not given

The chains behind the UniProt entries cited, without tags or fusion partners.
UniProt P21555, whole entry: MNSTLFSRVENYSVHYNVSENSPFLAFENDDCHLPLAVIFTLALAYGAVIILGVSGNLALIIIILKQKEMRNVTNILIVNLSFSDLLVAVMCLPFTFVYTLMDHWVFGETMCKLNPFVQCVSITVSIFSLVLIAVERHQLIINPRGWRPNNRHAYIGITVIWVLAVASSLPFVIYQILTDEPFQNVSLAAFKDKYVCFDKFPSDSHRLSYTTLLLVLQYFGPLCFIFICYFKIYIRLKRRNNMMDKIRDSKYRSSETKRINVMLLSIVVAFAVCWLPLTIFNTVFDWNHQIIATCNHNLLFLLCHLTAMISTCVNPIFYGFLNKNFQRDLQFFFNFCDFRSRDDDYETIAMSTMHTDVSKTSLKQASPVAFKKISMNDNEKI

Q: With NC(N)=NCCC[C@@H](NC(=O)C(c1ccccc1)c1ccccc1)C(=O)NCc1ccc(O)cc1 [BIBP 3226] as the compound, how does the Kb [1] read?
A: 0.0094 µM

Q: And the Ki [2]?
A: 0.02 µM

Reference: patent US6645774B1 (Synaptic Pharmaceutical Corporation, priority 1994, dated 2003)
